{"sequences": {"note": "Sequences of proteins named here, by UniProt entry; tags and fusion partners are left off.", "UniProt P14941, whole entry W110A/A186D": "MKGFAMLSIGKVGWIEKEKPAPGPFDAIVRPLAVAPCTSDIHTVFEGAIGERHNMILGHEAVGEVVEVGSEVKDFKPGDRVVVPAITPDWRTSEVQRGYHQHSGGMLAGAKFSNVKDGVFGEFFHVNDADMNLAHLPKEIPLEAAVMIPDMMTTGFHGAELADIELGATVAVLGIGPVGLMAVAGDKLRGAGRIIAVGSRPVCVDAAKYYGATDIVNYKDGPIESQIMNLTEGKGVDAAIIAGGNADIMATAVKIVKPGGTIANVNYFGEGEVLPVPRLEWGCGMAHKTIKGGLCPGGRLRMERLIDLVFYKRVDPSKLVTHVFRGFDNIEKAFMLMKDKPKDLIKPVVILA"}, "source": "patent US7750135B2", "about": "“Molecular design of thermostable alcohol dehydrogenase for synthesis for chiral aromatic alcohols” (Board of Trustees of Michigan State University, priority 2007, dated 2010)", "format_in_all_cases": "biochemical, Thermoanaerobacter ethanolicus", "key": {"W110A TeSADH [1]": {"system": "W110A TeSADH", "conditions": "purified W110A TeSADH versus TeSADH"}, "W110A TeSADH [2]": {"molecular_target": "T1, W110A TeSADH (Thermoanaerobacter brockii, UniProt P14941, A186D/W110A)", "T1 construct": "His6 (C); made in house; host or cells: E. coli HB101 (DE3) and BL21 (DE3), pET24a(+)", "conditions": "substrate 10 mM; 60° C., 1 min, 50 mM Tris-HCl pH~6.5 (reduction of ketones) or pH~8.0 (oxidation of alcohols), 0.4 mM NADP(H)"}, "W110A TeSADH [3]": {"molecular_target": "T1, W110A TeSADH", "conditions": "60° C., 1 min, 50 mM Tris-HCl pH ~8.0 (alcohols) or ~6.5 (ketones), 0.4 mM NADP(H)"}, "W110A TeSADH [4]": {"molecular_target": "T1, W110A TeSADH", "conditions": "heat-treated crude extracts"}}, "data": [{"molecule": "CCC(C)O", "note": "(centres unmarked) [2-Butanol]", "values": [{"measurement": "Fold lower activity of W110A TeSADH than TeSADH", "setting": "W110A TeSADH [1]", "result": 10, "unit": "fold"}, {"measurement": "Specific activity, W110A", "setting": "W110A TeSADH [2]", "result": "3.65 U(umol)/mg protein"}, {"measurement": "Vmax (app), W110A TeSADH", "setting": "W110A TeSADH [3]", "result": "29.2 ± 3.6", "unit": "U/mg"}, {"measurement": "Km", "setting": "W110A TeSADH [3]; read-out: Km (app), W110A TeSADH", "result": "80.3 ± 18", "unit": "mM"}, {"measurement": "Activity of W110A TeSADH", "setting": "W110A TeSADH [4]", "result": "much less active"}]}]}
